Data from patent US7759499B2, “Compounds as inhibitors of hepatitis C virus NS3 serine protease” (Schering Corporation, priority 2004, dated 2010).

Amino acid sequences for entries named in this document (tags omitted). Residues count along the entry.
UniProt P27958, 1027-1657: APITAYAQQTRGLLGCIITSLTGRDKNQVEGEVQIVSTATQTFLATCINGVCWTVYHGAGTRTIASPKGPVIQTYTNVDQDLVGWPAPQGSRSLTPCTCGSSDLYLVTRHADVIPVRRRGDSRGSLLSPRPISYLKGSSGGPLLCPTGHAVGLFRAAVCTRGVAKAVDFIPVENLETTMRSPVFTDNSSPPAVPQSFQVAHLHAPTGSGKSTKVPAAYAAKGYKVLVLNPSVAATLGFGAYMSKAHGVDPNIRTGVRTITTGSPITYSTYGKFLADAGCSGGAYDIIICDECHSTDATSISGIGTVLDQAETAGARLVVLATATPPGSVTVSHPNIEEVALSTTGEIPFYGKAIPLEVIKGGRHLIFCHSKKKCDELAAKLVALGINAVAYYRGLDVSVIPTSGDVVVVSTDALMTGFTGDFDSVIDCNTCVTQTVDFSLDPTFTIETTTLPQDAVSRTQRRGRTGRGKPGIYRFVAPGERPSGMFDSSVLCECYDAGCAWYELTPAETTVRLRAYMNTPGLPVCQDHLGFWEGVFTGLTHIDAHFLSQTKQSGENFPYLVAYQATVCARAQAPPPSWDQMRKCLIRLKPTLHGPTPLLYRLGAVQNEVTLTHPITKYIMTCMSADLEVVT
UniProt P27958, 1658-1711: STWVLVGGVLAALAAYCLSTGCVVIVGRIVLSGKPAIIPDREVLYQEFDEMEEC

Molecular target: Recombinant heterodimeric HCV NS3/NS4A protease (strain 1a) (Hepatitis C virus genotype 1a, UniProt P27958)
Experiment: Spectrophotometric assay for HCV protease inhibitory activity
Type: biochemical
Details: Table 1, range

SMILES	Ki
CN(C[C@@H](NC(=O)N[C@H](C(=O)N1C[C@H]2[C@@H]([C@H]1C(=O)NC(CC1CCC1)C(=O)C(N)=O)C2(C)C)C1CCCCC1)C(C)(C)C)S(=O)(=O)N1CCCCC1 (some centres unmarked) [Compound 10053]	≤ 75 nM
CN(C[C@@H](NC(=O)N[C@H](C(=O)N1C[C@H]2[C@@H]([C@H]1C(=O)NC(CCC(F)(F)F)C(=O)C(N)=O)C2(C)C)C(C)(C)C)C(C)(C)C)S(=O)(=O)N1CCCCC1 (some centres unmarked) [Compound 10070]	≤ 75 nM
CN(C[C@@H](NC(=O)N[C@H](C(=O)N1C[C@H]2[C@@H]([C@H]1C(=O)NC(CC1CCC1)C(=O)C(N)=O)C2(C)C)C(C)(C)C)C(C)(C)C)S(=O)(=O)N1CCCCC1 (some centres unmarked) [Compound 10061]	≤ 75 nM
CC(C)(C)[C@H](NC(=O)N[C@H](CNS(=O)(=O)N1CCC1)C(C)(C)C)C(=O)N1C[C@H]2[C@@H]([C@H]1C(=O)NC(CC1CC1)C(=O)C(N)=O)C2(C)C (some centres unmarked) [Compound 10020]	≤ 75 nM
C=CCNC(=O)C(=O)C(CCC)NC(=O)[C@@H]1[C@@H]2[C@H](CN1C(=O)[C@@H](NC(=O)N[C@H](CN(C)S(=O)(=O)N1CCOCC1)C(C)(C)C)C(C)(C)C)C2(C)C (some centres unmarked) [Compound 10081]	≤ 75 nM
CCCCC(NC(=O)[C@@H]1[C@@H]2[C@H](CN1C(=O)[C@@H](NC(=O)N[C@H](CN(C)S(=O)(=O)N(C)C)C(C)(C)C)C(C)(C)C)C2(C)C)C(=O)C(=O)NCC (some centres unmarked) [Compound 10078]	≤ 75 nM

Same assay, conditions: Table 2, range

SMILES	Ki
CCS(=O)(=O)N(C)C[C@@H](NC(=O)N[C@H](C(=O)N1C[C@H]2[C@@H]([C@H]1C(=O)NC(CC1CCC1)C(=O)C(N)=O)C2(C)C)C(C)(C)C)C1CCCCC1 (some centres unmarked) [Compound 11160]	≤ 75 nM
CCCC(NC(=O)[C@@H]1[C@@H]2[C@H](CN1C(=O)[C@@H](NC(=O)N[C@H](CN(C)S(=O)(=O)C(C)(C)C)C(C)(C)C)C(C)(C)C)C2(C)C)C(=O)C(N)=O (some centres unmarked) [Compound 11212]	≤ 75 nM
C=CCNC(=O)C(=O)C(CCC(F)(F)F)NC(=O)[C@@H]1[C@@H]2[C@H](CN1C(=O)[C@@H](NC(=O)N[C@H](CN(C)S(C)(=O)=O)C(C)(C)C)C1Cc3ccccc3C1)C2(C)C (some centres unmarked) [Compound 11387]	≤ 75 nM
C=CCNC(=O)C(=O)C(CCC)NC(=O)[C@@H]1[C@@H]2[C@H](CN1C(=O)[C@@H](NC(=O)N[C@H](CN(C)S(=O)(=O)c1cccs1)[C@@H](C)CC)C(C)(C)C)C2(C)C (some centres unmarked) [Compound 11083]	≤ 75 nM
CC[C@H](C)[C@@H](CN(C)S(C)(=O)=O)NC(=O)N[C@H](C(=O)N1C[C@H]2[C@@H]([C@H]1C(=O)NC(CC1CCC1)C(=O)C(N)=O)C2(C)C)C(C)(C)C (some centres unmarked) [Compound 11100]	≤ 75 nM
C=CCNC(=O)C(=O)C(CCC)NC(=O)[C@@H]1[C@@H]2[C@H](CN1C(=O)[C@@H](NC(=O)N[C@H](CN(C)S(=O)(=O)c1sc(C)nc1C)C1CCCCC1)C(C)(C)C)C2(C)C (some centres unmarked) [Compound 11155]	≤ 75 nM
C=CCNC(=O)C(=O)C(CCCC)NC(=O)[C@@H]1[C@@H]2[C@H](CN1C(=O)[C@@H](NC(=O)N[C@H](CN(C)S(=O)(=O)c1ccc(Br)s1)C(C)(C)C)C(C)(C)C)C2(C)C (some centres unmarked) [Compound 11338]	≤ 75 nM
C=CCNC(=O)C(=O)C(CCCC)NC(=O)[C@@H]1[C@@H]2[C@H](CN1C(=O)[C@@H](NC(=O)N[C@H](CN(C)S(=O)(=O)c1cccc(C#N)c1)C(C)(C)C)C(C)(C)C)C2(C)C (some centres unmarked) [Compound 11320]	≤ 75 nM
C#CCCC(NC(=O)[C@@H]1[C@@H]2[C@H](CN1C(=O)[C@@H](NC(=O)N[C@H](CN(C)S(=O)(=O)c1ccccc1)C(C)(C)C)C1CCCCC1)C2(C)C)C(=O)C(=O)NCC=C (some centres unmarked) [Compound 11355]	≤ 75 nM
CC(C)[C@@H](CN(C)S(=O)(=O)c1ccccc1)NC(=O)N[C@H](C(=O)N1C[C@H]2[C@@H]([C@H]1C(=O)NC(CC1CC1)C(=O)C(N)=O)C2(C)C)C(C)(C)C (some centres unmarked) [Compound 11118]	≤ 75 nM
C=CCNC(=O)C(=O)C(CCC)NC(=O)[C@@H]1[C@@H]2[C@H](CN1C(=O)[C@@H](NC(=O)N[C@H](CN(C)S(=O)(=O)c1ccccn1)C(C)(C)C)C(C)(C)C)C2(C)C (some centres unmarked) [Compound 11146]	≤ 75 nM
CCS(=O)(=O)N(C)C[C@@H](NC(=O)N[C@H](C(=O)N1C[C@H]2[C@@H]([C@H]1C(=O)NC(CC1CC1)C(=O)C(N)=O)C2(C)C)C1Cc2ccccc2C1)C(C)(C)C (some centres unmarked) [Compound 11290]	≤ 75 nM
C=CCNC(=O)C(=O)C(CC1CC1)NC(=O)[C@@H]1[C@@H]2[C@H](CN1C(=O)[C@@H](NC(=O)N[C@H](CN(CC1CCCCC1)S(C)(=O)=O)C(C)(C)C)C(C)(C)C)C2(C)C (some centres unmarked) [Compound 11168]	≤ 75 nM
CCCNC(=O)C(=O)C(CCC)NC(=O)[C@@H]1[C@@H]2[C@H](CN1C(=O)[C@@H](NC(=O)N[C@H](CN(C)S(=O)(=O)c1cccs1)[C@@H](C)CC)C(C)(C)C)C2(C)C (some centres unmarked) [Compound 11084]	> 250 nM
C=CCNC(=O)C(=O)C(CC1CC1)NC(=O)[C@@H]1[C@@H]2[C@H](CN1C(=O)[C@@H](NC(=O)N[C@H](CN(C)S(C)(=O)=O)C(C)(C)C)C1CCCCC1)C2(C)C (some centres unmarked) [Compound 11049]	≤ 75 nM
C#CCCC(NC(=O)[C@@H]1[C@@H]2[C@H](CN1C(=O)[C@@H](NC(=O)N[C@H](CN(C)S(C)(=O)=O)C(C)(C)C)C1(C)CCCCC1)C2(C)C)C(=O)C(=O)NCC=C (some centres unmarked) [Compound 11149]	≤ 75 nM
C=CCNC(=O)C(=O)C(CCC)NC(=O)[C@@H]1[C@@H]2[C@H](CN1C(=O)[C@@H](NC(=O)N[C@H](CN(C)S(=O)(=O)c1cccs1)C(C)(C)C)C1CCCCC1)C2(C)C (some centres unmarked) [Compound 11076]	≤ 75 nM
C=CCNC(=O)C(=O)C(CCC)NC(=O)[C@@H]1[C@@H]2[C@H](CN1C(=O)[C@@H](NC(=O)N[C@H](CN(C)S(=O)(=O)c1ccccn1)C(C)(C)C)C1(C)CCCCC1)C2(C)C (some centres unmarked) [Compound 11365]	≤ 75 nM
CN(C[C@@H](NC(=O)N[C@H](C(=O)N1C[C@H]2[C@@H]([C@H]1C(=O)NC(CC1CCC1)C(=O)C(N)=O)C2(C)C)C(C)(C)C)C(C)(C)C)S(=O)(=O)c1cccs1 (some centres unmarked) [Compound 11032]	≤ 75 nM
C=CCNC(=O)C(=O)C(CCC(F)(F)F)NC(=O)[C@@H]1[C@@H]2[C@H](CN1C(=O)[C@@H](NC(=O)NC1(Cc3ccccc3)CCCN(S(C)(=O)=O)C1)C(C)(C)C)C2(C)C (some centres unmarked) [Compound 11009]	> 250 nM
C=CCNC(=O)C(=O)C(CCC)NC(=O)[C@@H]1[C@@H]2[C@H](CN1C(=O)[C@@H](NC(=O)N[C@H](CN(C)S(=O)(=O)c1cccs1)C(C)(C)C)C1CCCC1)C2(C)C (some centres unmarked) [Compound 11225]	≤ 75 nM
CC[C@H](C)[C@@H](CN(C)S(=O)(=O)c1cccs1)NC(=O)N[C@H](C(=O)N1C[C@H]2[C@@H]([C@H]1C(=O)NC(CC1CCC1)C(=O)C(N)=O)C2(C)C)C(C)(C)C (some centres unmarked) [Compound 11082]	≤ 75 nM

Same assay, conditions: Table 4, range

SMILES	Ki
C=CCNC(=O)C(=O)C(CCC)NC(=O)[C@@H]1[C@@H]2[C@H](CN1C(=O)[C@@H](NC(=O)N[C@H](CNC(=O)c1cncnc1)C(C)(C)C)C1CCCCC1)C2(C)C (some centres unmarked) [Compound 13033]	≤ 75 nM
CC(C)(C)[C@@H](CNC(=O)c1cnccn1)NC(=O)N[C@H](C(=O)N1C[C@H]2[C@@H]([C@H]1C(=O)NC(CC1CCC1)C(=O)C(N)=O)C2(C)C)C1CCCCC1 (some centres unmarked) [Compound 13030]	≤ 75 nM
CNC(=O)C(=O)C(CCC(F)(F)F)NC(=O)[C@@H]1[C@@H]2[C@H](CN1C(=O)[C@@H](NC(=O)N[C@H](CN(C)C(C)=O)C(C)(C)C)C(C)(C)C)C2(C)C (some centres unmarked) [Compound 13019]	≤ 75 nM
CC(C)(C)[C@H](NC(=O)N[C@H](CNC(=O)c1cnccn1)C(C)(C)C)C(=O)N1C[C@H]2[C@@H]([C@H]1C(=O)NC(CC1CC1)C(=O)C(N)=O)C2(C)C (some centres unmarked) [Compound 13026]	≤ 75 nM

Same assay, conditions: Table 5, range

SMILES	Ki
CC(C)[C@@H](CN(C)C(=O)OC(C)(C)C)NC(=O)N[C@H](C(=O)N1C[C@H]2[C@@H]([C@H]1C(=O)NC(CC1CCC1)C(=O)C(N)=O)C2(C)C)C(C)(C)C (some centres unmarked) [Compound 14033]	75 to 250 nM
CC(C)[C@H](CNC(=O)OCc1ccccc1)NC(=O)N[C@H](C(=O)N1C[C@H]2[C@@H]([C@H]1C(=O)NC(CC1CCC1)C(=O)C(N)=O)C2(C)C)C(C)(C)C (some centres unmarked) [Compound 14003]	75 to 250 nM
CC(C)[C@@H](CNC(=O)OC(C)(C)C)NC(=O)N[C@H](C(=O)N1C[C@H]2[C@@H]([C@H]1C(=O)NC(CC1CCC1)C(=O)C(N)=O)C2(C)C)C(C)(C)C (some centres unmarked) [Compound 14012]	75 to 250 nM
COC(=O)N(C)C[C@@H](NC(=O)N[C@H](C(=O)N1C[C@H]2[C@@H]([C@H]1C(=O)NC(CC1CCC1)C(=O)C(N)=O)C2(C)C)C(C)(C)C)C(C)(C)C (some centres unmarked) [Compound 14030]	≤ 75 nM
CCOC(=O)NC[C@@H](NC(=O)N[C@H](C(=O)N1C[C@H]2[C@@H]([C@H]1C(=O)NC(CC1CC1)C(=O)C(N)=O)C2(C)C)C(C)(C)C)C(C)C (some centres unmarked) [Compound 14020]	≤ 75 nM
CN(C[C@@H](NC(=O)N[C@H](C(=O)N1C[C@H]2[C@@H]([C@H]1C(=O)NC(CC1CC1)C(=O)C(N)=O)C2(C)C)C(C)(C)C)C1CCCCC1)C(=O)OC(C)(C)C (some centres unmarked) [Compound 14049]	> 250 nM
C=CCNC(=O)C(=O)C(CCC)NC(=O)[C@@H]1[C@@H]2[C@H](CN1C(=O)[C@@H](NC(=O)N[C@H](CN(C)C(=O)OC(C)(C)C)C(C)(C)C)C(C)(C)C)C2(C)C (some centres unmarked) [Compound 14039]	> 250 nM
C=CCNC(=O)C(=O)C(CCCC)NC(=O)[C@@H]1[C@@H]2[C@H](CN1C(=O)[C@@H](NC(=O)N[C@H](CN(C)C(=O)OC(C)(C)C)C(C)(C)C)C(C)(C)C)C2(C)C (some centres unmarked) [Compound 14044]	> 250 nM

Same assay, conditions: Table 5A, range

SMILES	Ki
C=CCNC(=O)C(=O)C(CCCC)NC(=O)[C@@H]1[C@@H]2[C@H](CN1C(=O)[C@@H](NC(=O)N[C@H](CN(C)S(=O)(=O)CC)C1(C)CCCCC1)C1Cc3ccccc3C1)C2(C)C (some centres unmarked) [Compound 11422]	≤ 75 nM
CCCCC(NC(=O)[C@@H]1[C@@H]2[C@H](CN1C(=O)[C@@H](NC(=O)N[C@H](CN(C)S(=O)(=O)CC)C1(C)CCCCC1)C1Cc3ccccc3C1)C2(C)C)C(=O)C(=O)NCC (some centres unmarked) [Compound 11423]	≤ 75 nM
CCS(=O)(=O)N(C)C[C@@H](NC(=O)N[C@H](C(=O)N1C[C@H]2[C@@H]([C@H]1C(=O)NC(CC1CC1)C(=O)C(=O)NCc1nccs1)C2(C)C)C1Cc2ccccc2C1)C(C)(C)C (some centres unmarked) [Compound 11419]	≤ 75 nM

Same assay, conditions: Table 6

SMILES	Ki
C=CCNC(=O)C(=O)C(CC1CC1)NC(=O)[C@@H]1[C@@H]2[C@H](CN1C(=O)[C@@H](NC(=O)N[C@H](CN(C)S(=O)(=O)c1cccs1)C(C)(C)C)C(C)(C)C)C2(C)C (some centres unmarked) [drawing 53]	30 nM
